Test results reported in the Human Domainome abundance scans (Beltran et al. 2025).

B1: X-ray repair cross-complementing protein 6, residues 558 to 609; numbered along this chain, P12956 (parent)
chain: EYSEEELKTHISKGTLGKFTVPMLKEACRAYGLKSGLKKQELLEALTKHFQD

Variants of: B1
Assay: abundance fitness (aPCA) (normalised: wild type 0, dead -1); higher = more abundant; growth selection in yeast, the domain comes from the species named
Conditions: Homo sapiens

Abundance fitness: each site, then its substitutions
A27: Q -0.62 ± 0.19 | S -0.545 ± 0.17 | T -0.351 ± 0.21 | V -0.195 ± 0.11 | W -0.179 ± 0.095
C28: A -0.267 ± 0.082 | D -0.786 ± 0.36 | E -1.15 ± 0.26 | F -0.278 ± 0.1 | G -0.443 ± 0.075 | H -0.498 ± 0.27 | L -0.322 ± 0.074 | M -0.375 ± 0.082 | N -0.644 ± 0.18 | P -0.858 ± 0.099 | S -0.5 ± 0.077 | T -0.37 ± 0.099 | V -0.153 ± 0.059 | W -0.844 ± 0.066 | Y -0.939 ± 0.084
R29: A 0.028 ± 0.09 | D 0.011 ± 0.06 | E -0.025 ± 0.07 | F -0.209 ± 0.1 | G -0.246 ± 0.064 | H 0.023 ± 0.18 | I -0.094 ± 0.23 | K 0.043 ± 0.066 | L -0.215 ± 0.066 | M -0.043 ± 0.078 | N 0.267 ± 0.18 | P -0.538 ± 0.35 | Q 0.061 ± 0.095 | S -0.113 ± 0.062 | T -0.365 ± 0.14 | W -0.314 ± 0.042
A30: C 0.203 ± 0.12 | D -0.357 ± 0.067 | E -0.311 ± 0.12 | F -0.292 ± 0.17 | G -0.309 ± 0.1 | H -0.635 ± 0.18 | I 0.299 ± 0.099 | K 0.107 ± 0.056 | L 0.022 ± 0.069 | M -0.011 ± 0.071 | N -0.471 ± 0.17 | P -0.562 ± 0.14 | Q 0.037 ± 0.084 | R 0.086 ± 0.07 | S -0.101 ± 0.071 | T -0.586 ± 0.14 | W -0.324 ± 0.049 | Y 0.185 ± 0.21
Y31: A -0.189 ± 0.054 | D -0.657 ± 0.17 | E -0.459 ± 0.15 | G -0.685 ± 0.067 | H 0.123 ± 0.13 | I -0.264 ± 0.19 | K -0.481 ± 0.14 | L -0.151 ± 0.082 | M -0.038 ± 0.089 | N -0.141 ± 0.094 | P -1.07 ± 0.24 | Q -0.216 ± 0.14 | R -0.197 ± 0.049 | S -0.602 ± 0.093 | T -0.343 ± 0.098 | V -0.136 ± 0.062 | W -0.044 ± 0.075
G32: A -0.445 ± 0.068 | D -0.3 ± 0.045 | E -0.433 ± 0.084 | F -0.599 ± 0.12 | H -0.036 ± 0.11 | I -0.796 ± 0.2 | K -0.108 ± 0.097 | M -0.724 ± 0.12 | N -0.026 ± 0.11 | Q -0.496 ± 0.13 | R -0.276 ± 0.057 | S -0.295 ± 0.049 | T -0.418 ± 0.095 | V -0.9 ± 0.082 | W -0.788 ± 0.072 | Y -0.517 ± 0.19
L33: A -0.752 ± 0.071 | C -0.406 ± 0.054 | D -0.637 ± 0.062 | E -0.613 ± 0.067 | F -0.691 ± 0.087 | G -0.912 ± 0.05 | I -0.104 ± 0.086 | K -1.26 ± 0.31 | M -0.649 ± 0.12 | P -0.924 ± 0.13 | Q -0.722 ± 0.089 | R -0.9 ± 0.046 | S -0.98 ± 0.055 | T -0.982 ± 0.39 | V -0.025 ± 0.055 | W -1.06 ± 0.085 | Y -0.784 ± 0.075
K34: A -0.107 ± 0.047 | C -0.073 ± 0.061 | D -0.021 ± 0.058 | E -0.038 ± 0.071 | F -0.347 ± 0.044 | H -0.112 ± 0.037 | I -0.228 ± 0.04 | L -0.344 ± 0.035 | N -0.042 ± 0.043 | P 0 ± 0.037 | R -0.09 ± 0.036 | S -0.095 ± 0.034 | T -0.116 ± 0.04 | V -0.128 ± 0.049 | W -0.546 ± 0.049 | Y -0.148 ± 0.045
S35: A 0.082 ± 0.071 | C 0 ± 0.088 | D -0.096 ± 0.1 | E -0.351 ± 0.12 | F -0.025 ± 0.084 | G 0.012 ± 0.062 | H -0.228 ± 0.11 | I -0.029 ± 0.1 | K -0.638 ± 0.17 | L -0.131 ± 0.05 | M -0.341 ± 0.14 | N -0.61 ± 0.19 | P -0.012 ± 0.097 | Q -0.308 ± 0.12 | R -0.371 ± 0.081 | T 0.075 ± 0.055 | V 0.048 ± 0.056 | W -0.582 ± 0.13 | Y -0.371 ± 0.11
G36: D 0.3 ± 0.13 | Q -0.946 ± 0.42 | S -0.046 ± 0.064 | V -0.62 ± 0.45
L37: A 0.027 ± 0.071 | C -0.111 ± 0.076 | D 0.042 ± 0.059 | E 0.078 ± 0.058 | F -0.171 ± 0.071 | G 0.084 ± 0.048 | H 0.17 ± 0.1 | I 0.075 ± 0.091 | K 0.031 ± 0.052 | M -0.036 ± 0.073 | N -0.327 ± 0.1 | P -0.052 ± 0.065 | Q -0.211 ± 0.088 | S -0.091 ± 0.065 | T 0.031 ± 0.054 | V 0.051 ± 0.048 | W -0.086 ± 0.062 | Y -0.11 ± 0.087
K38: A -0.14 ± 0.069 | C -0.048 ± 0.047 | D -0.04 ± 0.072 | F -0.573 ± 0.12 | G -0.062 ± 0.039 | H -0.147 ± 0.1

± gives the uncertainty stated by the source.
